# PubChem BioAssay AID1422 (Emory University Molecular Libraries Screening Center, 2008)
# Chains of the proteins cited; added tags and fusions are not shown. Lines headed by an entry give the natural chain unless they say otherwise; changes in a name come on top.
# UniProt P43116: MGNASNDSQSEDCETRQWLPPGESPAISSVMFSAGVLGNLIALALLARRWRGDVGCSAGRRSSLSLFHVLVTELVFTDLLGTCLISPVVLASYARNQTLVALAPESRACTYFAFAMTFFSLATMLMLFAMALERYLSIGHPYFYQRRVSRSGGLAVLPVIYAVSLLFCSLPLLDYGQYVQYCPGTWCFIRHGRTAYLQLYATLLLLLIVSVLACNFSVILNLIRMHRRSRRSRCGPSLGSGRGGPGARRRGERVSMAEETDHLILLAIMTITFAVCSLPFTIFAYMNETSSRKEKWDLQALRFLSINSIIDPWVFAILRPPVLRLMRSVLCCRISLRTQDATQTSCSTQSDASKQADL
# “And” between values parts separate entries of the source, which are not always exact repeats. Identical values can stand only once. The list shows a part of the results, in another mix than the full data. The source made the active and inactive calls.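 How the source made its calls: active means percent inhibition above 40 after rounding to a whole number; inactive means the rest.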
# Target: Prostaglandin E2 receptor EP2 subtype (Homo sapiens) (UniProt P43116)
# Experiment: human EP2 receptor antagonists, primary screen, TR-FRET cAMP, C6 glioma cells (AID 1422);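 further: rat C6 glioma host cells with rolipram phosphodiesterase inhibitor present; the protocol text gives 20 µM as final concentration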
# Details: C6 glioma cells expressing human EP2, cAMP TR-FRET; at 25 µM; active compounds read high; cells stimulated with saturating PGE2
row,SMILES,inhibition
1,C(Cc1nn[nH]n1)c1nn[nH]n1,inactive: 10.4%
2,CCN(N=Nc1nonc1N)c1nonc1N,inactive: 11.8%
3,Nc1cccc2ccc([As](=O)(O)O)cc12,inactive: 5.9%
4,[N-]=[N+]=NCC(O)CN=[N+]=[N-] (stereo not given),inactive: 9.25%
5,CN(C(=O)Cc1ccc(Cl)c(Cl)c1)[C@H]1CCCC[C@@H]1N1CCCC1,inactive: 14.3% and inactive: 21.7%
6,Cc1ccc(NP(=O)(Oc2ccccc2F)Oc2ccccc2F)nc1,inactive: 12.3%
7,CCOP(=O)(Nc1ccccc1)OCC,inactive: 6.7%
8,Cc1cc(SC(NC(=O)c2ccc(F)cc2)C(Cl)(Cl)Cl)ncn1 (stereo not given),inactive: 6.18%
9,O=C(O)c1ccccc1[As](=O)(O)O,inactive: 8.24%
10,CC(=O)Nc1ccc([As](=O)(O)O)cc1,inactive: 9.56%
11,O=P(Nc1nc2ccc(Cl)cc2s1)(c1ccccc1)c1ccccc1,inactive: 6.48%
12,NCC[C@@H](N)CSP(=O)(O)O,inactive: 6.32%
13,CC(C)CC(=O)NC(Sc1ccc(Cl)cc1)C(Cl)(Cl)Cl (stereo not given),inactive: -1.82%
14,Nc1cc(N)c2nonc2c1[N+](=O)[O-],inactive: 4.26%
15,Cc1c2non([O-])c-2c(C)[n+](=O)[n+]1[O-],inactive: 8.05%
16,O=C(NC(Sc1ccncn1)C(Cl)(Cl)Cl)c1ccccc1 (stereo not given),inactive: 12.8%
17,Oc1ccccc1CNc1ccccn1,inactive: 5.09%
18,Cc1ccc(OP(=O)(Nc2nccs2)Oc2ccc(C)cc2)cc1,inactive: 8.26%
19,O=[N+]([O-])c1ccc(C[As](=O)(O)O)cc1,inactive: 14.3%
20,CCOc1ccc(/C=C2/C(=O)NC(=O)N(Cc3ccco3)C2=O)cc1,inactive: 8.08%
21,COc1ccccc1OP(=O)(Nc1ccc(C)cn1)Oc1ccccc1OC,inactive: 8.26%
22,Clc1ccc(Cl)c(NC2=NCC(CBr)S2)c1 (stereo not given),inactive: 3.7%
23,CN1CCCC(OC(=O)C(c2ccccc2)c2ccccc2)C1 (stereo not given),inactive: 6.74%
24,NC(=O)c1cc([N+](=O)[O-])cc([N+](=O)[O-])c1N,inactive: 9.24%
25,Cc1ccc(N/C(=N/P(=O)(N2CCOCC2)N2CCOCC2)N2CCOCC2)cc1,inactive: 5.58%
26,CN(C)C(=O)OCCc1n(C)cc[n+]1C,inactive: 2.12%
27,CC(C)=N/N=C(\N)N[N+](=O)[O-],inactive: 3.31%
28,CC1CCN(C(=O)Oc2c(Cl)cc(Cl)c3cccnc23)CC1,inactive: 0.76%
29,O=C(CO)Nc1ccc([As](=O)(O)O)cc1,inactive: 7.09%
30,C[N+]1=C2C=CC=CC=C2SC12C([N+](=O)[O-])=CC([N+](=O)[O-])=C[C-]2[N+](=O)[O-] (stereo not given),inactive: 7.82%
